B1: RAC-alpha serine/threonine-protein kinase (Homo sapiens), P31749 (parent)
chain: MSDVAIVKEGWLHKRGEYIKTWRPRYFLLKNDGTFIGYKERPQDVDQREAPLNNFSVAQCQLMKTERPRPNTFIIRCLQWTTVIERTFHVETPEEREEWTTAIQTVADGLKKQEEEEMDFRSGSPSDNSGAEEMEVSLAKPKHRVTMNEFEYLKLLGKGTFGKVILVKEKATGRYYAMKILKKEVIVAKDEVAHTLTENRVLQNSRHPFLTALKYSFQTHDRLCFVMEYANGGELFFHLSRERVFSEDRARFYGAEIVSALDYLHSEKNVVYRDLKLENLMLDKDGHIKITDFGLCKEGIKDGATMKTFCGTPEYLAPEVLEDNDYGRAVDWWGLGVVMYEMMCGRLPFYNQDHEKLFELILMEEIRFPRTLGPEAKSLLSGLLKKDPKQRLGGGSEDAKEIMQHRFFAGIVWQHVYEKKLSPPFKPQVTSETDTRYFDEEFTAQMITITPPDQDDSMECVDSERRPHFPQFSYSASGTA
partner: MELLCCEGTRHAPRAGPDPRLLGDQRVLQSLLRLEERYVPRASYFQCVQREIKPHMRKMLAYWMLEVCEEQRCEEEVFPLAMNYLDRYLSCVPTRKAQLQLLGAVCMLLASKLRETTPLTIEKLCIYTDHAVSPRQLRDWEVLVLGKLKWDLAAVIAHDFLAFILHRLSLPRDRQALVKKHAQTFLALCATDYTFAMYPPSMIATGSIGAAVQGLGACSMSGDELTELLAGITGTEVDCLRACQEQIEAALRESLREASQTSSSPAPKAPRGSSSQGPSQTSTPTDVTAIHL
B2: RAC-alpha serine/threonine-protein kinase (Homo sapiens), P31749 (parent)
chain: B1 chain
partner: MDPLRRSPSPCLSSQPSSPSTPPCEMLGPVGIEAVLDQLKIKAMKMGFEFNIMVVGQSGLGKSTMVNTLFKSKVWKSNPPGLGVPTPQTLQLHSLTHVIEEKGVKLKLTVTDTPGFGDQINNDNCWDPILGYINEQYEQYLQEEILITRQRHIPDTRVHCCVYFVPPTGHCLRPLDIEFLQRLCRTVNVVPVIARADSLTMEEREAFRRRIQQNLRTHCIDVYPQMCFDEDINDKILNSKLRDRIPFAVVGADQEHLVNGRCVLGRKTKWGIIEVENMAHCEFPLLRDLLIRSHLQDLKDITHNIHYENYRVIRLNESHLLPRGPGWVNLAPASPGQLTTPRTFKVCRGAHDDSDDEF
B3: RAC-alpha serine/threonine-protein kinase (Homo sapiens), P31749 (parent)
chain: B1 chain
partner: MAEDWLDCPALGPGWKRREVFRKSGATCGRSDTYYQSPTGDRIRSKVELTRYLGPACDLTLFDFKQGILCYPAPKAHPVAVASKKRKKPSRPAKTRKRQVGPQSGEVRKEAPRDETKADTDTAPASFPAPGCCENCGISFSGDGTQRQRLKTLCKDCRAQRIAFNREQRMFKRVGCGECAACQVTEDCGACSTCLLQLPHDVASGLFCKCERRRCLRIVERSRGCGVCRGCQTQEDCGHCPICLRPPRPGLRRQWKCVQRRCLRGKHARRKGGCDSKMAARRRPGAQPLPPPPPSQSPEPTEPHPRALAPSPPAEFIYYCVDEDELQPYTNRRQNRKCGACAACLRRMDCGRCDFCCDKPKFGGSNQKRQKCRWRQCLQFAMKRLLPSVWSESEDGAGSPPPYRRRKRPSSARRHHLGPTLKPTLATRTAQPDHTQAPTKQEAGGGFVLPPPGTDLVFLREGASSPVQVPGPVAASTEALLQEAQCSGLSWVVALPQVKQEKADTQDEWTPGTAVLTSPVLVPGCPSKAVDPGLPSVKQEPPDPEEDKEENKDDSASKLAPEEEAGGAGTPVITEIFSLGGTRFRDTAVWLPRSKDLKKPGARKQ
B4: RAC-alpha serine/threonine-protein kinase (Homo sapiens), P31749 (parent)
chain: B1 chain
partner: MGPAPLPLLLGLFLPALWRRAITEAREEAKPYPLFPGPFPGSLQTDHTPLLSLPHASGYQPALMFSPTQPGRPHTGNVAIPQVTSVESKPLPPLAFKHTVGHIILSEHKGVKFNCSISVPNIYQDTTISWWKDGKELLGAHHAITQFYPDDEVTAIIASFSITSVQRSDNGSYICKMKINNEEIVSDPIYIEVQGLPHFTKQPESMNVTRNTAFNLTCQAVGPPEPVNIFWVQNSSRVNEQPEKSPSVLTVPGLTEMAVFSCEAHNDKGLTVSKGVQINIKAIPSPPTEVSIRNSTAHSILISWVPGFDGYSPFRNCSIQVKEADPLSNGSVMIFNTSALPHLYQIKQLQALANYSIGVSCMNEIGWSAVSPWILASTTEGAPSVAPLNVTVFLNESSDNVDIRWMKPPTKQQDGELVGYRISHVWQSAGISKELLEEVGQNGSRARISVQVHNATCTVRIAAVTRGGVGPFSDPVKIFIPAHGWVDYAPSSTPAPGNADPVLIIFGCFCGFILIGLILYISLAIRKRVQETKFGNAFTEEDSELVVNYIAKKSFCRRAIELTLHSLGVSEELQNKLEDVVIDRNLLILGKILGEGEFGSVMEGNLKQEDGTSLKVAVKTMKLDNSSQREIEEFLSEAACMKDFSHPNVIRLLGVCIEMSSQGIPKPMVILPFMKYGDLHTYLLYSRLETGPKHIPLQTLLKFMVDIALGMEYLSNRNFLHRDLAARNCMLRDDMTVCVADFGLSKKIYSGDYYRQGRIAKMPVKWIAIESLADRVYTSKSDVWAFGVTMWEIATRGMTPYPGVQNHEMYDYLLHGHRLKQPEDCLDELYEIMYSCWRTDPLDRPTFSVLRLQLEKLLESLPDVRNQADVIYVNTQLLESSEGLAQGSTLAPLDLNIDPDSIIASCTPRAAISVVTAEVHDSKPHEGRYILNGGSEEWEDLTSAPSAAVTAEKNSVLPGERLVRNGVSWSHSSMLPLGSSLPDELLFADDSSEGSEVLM
B5: RAC-alpha serine/threonine-protein kinase (Homo sapiens), P31749 (parent)
chain: B1 chain
partner: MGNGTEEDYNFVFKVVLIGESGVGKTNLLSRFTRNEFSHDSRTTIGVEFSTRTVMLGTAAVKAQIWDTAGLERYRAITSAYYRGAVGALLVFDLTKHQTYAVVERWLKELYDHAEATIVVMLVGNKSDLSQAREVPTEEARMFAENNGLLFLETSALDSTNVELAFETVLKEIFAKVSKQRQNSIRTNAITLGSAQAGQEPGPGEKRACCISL
B6: RAC-alpha serine/threonine-protein kinase (Homo sapiens), P31749 (parent)
chain: B1 chain
partner: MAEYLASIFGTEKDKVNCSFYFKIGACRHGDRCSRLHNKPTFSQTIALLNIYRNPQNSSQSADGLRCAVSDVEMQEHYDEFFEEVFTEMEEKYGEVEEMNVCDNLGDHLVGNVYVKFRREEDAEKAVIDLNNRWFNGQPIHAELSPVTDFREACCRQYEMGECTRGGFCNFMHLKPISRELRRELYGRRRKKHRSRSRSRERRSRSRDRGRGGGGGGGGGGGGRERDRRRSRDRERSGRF
B7: RAC-alpha serine/threonine-protein kinase (Homo sapiens), P31749 (parent)
chain: B1 chain
partner: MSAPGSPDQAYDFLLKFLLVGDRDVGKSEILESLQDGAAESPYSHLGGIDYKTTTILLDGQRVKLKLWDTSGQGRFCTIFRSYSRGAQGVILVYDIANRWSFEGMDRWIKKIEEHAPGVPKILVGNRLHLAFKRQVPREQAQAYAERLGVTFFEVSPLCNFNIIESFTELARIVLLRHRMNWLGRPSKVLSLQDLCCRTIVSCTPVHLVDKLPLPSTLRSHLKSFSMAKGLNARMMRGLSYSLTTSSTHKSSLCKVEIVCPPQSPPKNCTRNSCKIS
B8: RAC-alpha serine/threonine-protein kinase (Homo sapiens), P31749 (parent)
chain: B1 chain
partner: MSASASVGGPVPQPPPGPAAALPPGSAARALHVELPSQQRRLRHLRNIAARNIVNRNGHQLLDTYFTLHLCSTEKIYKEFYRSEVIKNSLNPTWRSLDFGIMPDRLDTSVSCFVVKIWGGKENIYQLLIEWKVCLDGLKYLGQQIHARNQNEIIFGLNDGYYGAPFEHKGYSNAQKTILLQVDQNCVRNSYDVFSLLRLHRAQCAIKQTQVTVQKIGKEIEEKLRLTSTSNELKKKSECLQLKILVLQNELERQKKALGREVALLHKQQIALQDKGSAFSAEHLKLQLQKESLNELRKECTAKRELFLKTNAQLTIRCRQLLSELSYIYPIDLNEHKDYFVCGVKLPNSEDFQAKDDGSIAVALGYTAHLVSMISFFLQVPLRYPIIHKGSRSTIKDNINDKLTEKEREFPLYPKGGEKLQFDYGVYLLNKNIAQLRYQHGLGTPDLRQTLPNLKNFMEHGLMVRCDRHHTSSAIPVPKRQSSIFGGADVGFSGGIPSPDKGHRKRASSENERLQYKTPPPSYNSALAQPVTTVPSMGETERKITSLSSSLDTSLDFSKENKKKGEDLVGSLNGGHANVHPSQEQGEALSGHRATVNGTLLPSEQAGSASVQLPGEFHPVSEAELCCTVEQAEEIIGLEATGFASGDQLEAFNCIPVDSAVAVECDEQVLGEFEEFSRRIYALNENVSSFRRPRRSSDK
B9: RAC-alpha serine/threonine-protein kinase (Homo sapiens), P31749 (parent)
chain: B1 chain
partner: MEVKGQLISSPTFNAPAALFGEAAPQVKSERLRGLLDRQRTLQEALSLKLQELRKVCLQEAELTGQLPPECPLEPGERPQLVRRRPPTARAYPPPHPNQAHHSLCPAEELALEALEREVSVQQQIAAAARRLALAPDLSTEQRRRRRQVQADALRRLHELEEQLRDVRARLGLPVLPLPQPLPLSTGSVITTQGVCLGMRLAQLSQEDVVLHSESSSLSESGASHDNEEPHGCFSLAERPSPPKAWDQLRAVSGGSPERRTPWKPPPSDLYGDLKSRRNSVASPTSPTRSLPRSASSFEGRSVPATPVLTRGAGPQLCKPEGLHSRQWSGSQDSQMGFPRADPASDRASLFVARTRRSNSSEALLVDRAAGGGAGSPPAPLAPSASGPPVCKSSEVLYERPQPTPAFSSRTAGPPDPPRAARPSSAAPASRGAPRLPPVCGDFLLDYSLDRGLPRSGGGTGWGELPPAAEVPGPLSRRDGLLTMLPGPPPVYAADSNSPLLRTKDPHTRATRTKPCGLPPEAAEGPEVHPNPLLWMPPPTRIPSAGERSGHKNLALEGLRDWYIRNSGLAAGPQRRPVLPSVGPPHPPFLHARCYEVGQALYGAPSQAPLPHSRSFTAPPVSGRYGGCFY
B10: RAC-alpha serine/threonine-protein kinase (Homo sapiens), P31749 (parent)
chain: B1 chain
partner: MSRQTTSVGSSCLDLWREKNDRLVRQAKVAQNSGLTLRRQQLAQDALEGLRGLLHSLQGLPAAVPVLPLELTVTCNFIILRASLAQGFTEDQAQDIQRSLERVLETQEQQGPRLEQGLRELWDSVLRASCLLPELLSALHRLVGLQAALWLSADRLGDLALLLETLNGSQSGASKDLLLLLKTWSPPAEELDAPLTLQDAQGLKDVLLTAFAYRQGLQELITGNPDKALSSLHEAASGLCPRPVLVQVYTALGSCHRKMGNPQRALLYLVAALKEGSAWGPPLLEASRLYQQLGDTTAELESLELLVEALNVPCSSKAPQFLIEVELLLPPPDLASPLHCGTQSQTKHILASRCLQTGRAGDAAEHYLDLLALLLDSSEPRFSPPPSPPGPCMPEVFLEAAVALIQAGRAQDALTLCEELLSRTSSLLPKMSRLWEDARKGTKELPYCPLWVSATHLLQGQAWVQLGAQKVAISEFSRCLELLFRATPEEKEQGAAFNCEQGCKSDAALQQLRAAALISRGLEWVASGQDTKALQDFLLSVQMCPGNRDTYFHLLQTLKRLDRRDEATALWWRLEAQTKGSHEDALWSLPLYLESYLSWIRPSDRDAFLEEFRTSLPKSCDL

Variants of: B1
Conditions: with ccnd3_human CCND3, P30281

| effect of a mutation on the interaction | Variant |
| --- | --- |
| causing an interaction | E17K |

Variants of: B1
Conditions: with ccnd3_human CCND3, P30281
Remark: another data set of the same source

| effect of a mutation on the interaction | Variant |
| --- | --- |
| increasing interaction strength | E17K |

Variants of: B2
Conditions: with sep12_human SEPTIN12, Q8IYM1

| effect of a mutation on the interaction | Variant |
| --- | --- |
| with no effect | E17K |

Variants of: B3
Conditions: with mbd1_human MBD1, Q9UIS9

| effect of a mutation on the interaction | Variant |
| --- | --- |
| with no effect | E17K |

Variants of: B4
Conditions: with mertk_human MERTK

| effect of a mutation on the interaction | Variant |
| --- | --- |
| with no effect | E17K |

Variants of: B5
Conditions: with rab25_human RAB25, P57735

| effect of a mutation on the interaction | Variant |
| --- | --- |
| with no effect | E17K |

Variants of: B6
Conditions: with U2AF1, Q01081

| effect of a mutation on the interaction | Variant |
| --- | --- |
| with no effect | E17K |

Variants of: B7
Conditions: with rb40a_human RAB40A

| effect of a mutation on the interaction | Variant |
| --- | --- |
| with no effect | E17K |

Variants of: B8
Conditions: with uvrag_human UVRAG

| effect of a mutation on the interaction | Variant |
| --- | --- |
| with no effect | E17K |

Variants of: B9
Conditions: with cc120_human CCDC120, Q96HB5

| effect of a mutation on the interaction | Variant |
| --- | --- |
| causing an interaction | E17K |

Variants of: B10
Conditions: with fancg_human FANCG

| effect of a mutation on the interaction | Variant |
| --- | --- |
| with no effect | E17K |
